For 75 molecules, inhibition results are on record in PubChem BioAssay AID588413 (Sanford-Burnham Center for Chemical Genomics, 2011).

One may read the inhibition as the change of the read-out against control, counted positive when it falls.

The entries are a selection whose mix differs from that of the whole data set. Calls of active or inactive are those of the source.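 How the source made its calls: active means inhibition above about 55% (limit read from the data); inactive means the rest.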

The assay is described as follows: blockers of Gli reporter signaling – luciferase luminescence, Sufu-KO-LIGHT cells, uHTS, primary screen (AID 588413).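 Further: 0% = DMSO-treated cells and 100% = wells with medium but no cells.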 As to conditions: Sufu-KO-LIGHT fibroblasts, at 5 µM, active compounds read high.
On to `c1ccc(CN2CCC(Nc3ccccc3)CC2)cc1`, for which the inhibition was inactive: 1.78%.

Turning to `CCCN1CCC(Nc2cc(OC)cc(OC)c2)CC1`, the inhibition was inactive: -13.4%.

Turning to `Cc1cc(N(CCCl)CCCl)ccc1C=O`, the inhibition was inactive: 15.1%.

Turning to `CN(C)C1(CNC(=O)c2cccc(C#N)c2)CCCCC1`, the inhibition is inactive: -13.3%.

On to `CC(C)(C)OC(=O)N1CCC(N(C(=O)c2ccccc2)c2ccc(Cl)cc2)CC1`, for which the inhibition was inactive: 19.2%.

For `N#Cc1ccc(C(=O)NCC2(N3CCCCC3)CCCCC2)cc1`, the inhibition is inactive: 11.3%.

With `CCc1cc(C(=O)NCC2(N3CCCCC3)CCCCC2)sc1C`, the inhibition is inactive: 30.6%.

Regarding `O=C(OC1CN2CCC1CC2)C1c2ccccc2C=Cc2ccccc21` (stereo not given), the inhibition is inactive: 4.47%.

Take `N/C(=N\O)c1c(N)no[n+]1[O-]`: the inhibition was inactive: 7.68%.

Turning to `CCOC(=O)N1CCC(Nc2ccc(C)cc2)CC1`, the inhibition was inactive: 5.61%.

As for `COc1ccc(C(=O)NCC2(N3CCOCC3)CCCCC2)cc1OC`, the inhibition is inactive: 22.9%.

Consider `O=C(NCC1(N2CCOCC2)CCCCC1)c1cc(Br)ccc1Cl`, for which the inhibition was inactive: -24.7%.

Take `COc1cc(C(=O)NCC2(N3CCOCC3)CCCCC2)cc(OC)c1C`: the inhibition is inactive: 6.11%.

In the case of `CN1CCC(Nc2ccc(Cl)cc2)CC1`, the inhibition is inactive: 1.85%.

In the case of `CCC(CO)(C(=O)OC1CN2CCC1CC2)c1ccccc1` (stereo not given), the inhibition was inactive: -2.98%.

For the molecule `COc1cc(OC)cc(C(=O)NCC2(N3CCOCC3)CCCCC2)c1`, the inhibition is inactive: 5.27%.

`COc1cccc(C(=O)N(c2cc(C)cc(C)c2)C2CCN(C(=O)OC(C)(C)C)CC2)c1`: the inhibition was inactive: 18.7%.

On to `CCCOc1ccc(C(=O)NCC2(N(C)C)CCCCC2)cc1`, for which the inhibition was inactive: 9.11%.

In the case of `CC(C)(C)OC(=O)N1CCC(Nc2ccccc2)CC1`, the inhibition is inactive: 2.23%.

With `O=C(O)C1(Nc2ccccc2)CCN(Cc2ccccc2)CC1`, the inhibition is inactive: 1.26%.

In the case of `CCOc1ncccc1C(=O)NCC1(N2CCOCC2)CCCCC1`, the inhibition was inactive: 17.9%.

As to `CN1CCC(Nc2ccc(F)c(Cl)c2)CC1`, the inhibition was inactive: -7.78%.

For `O=C(NCC1(N2CCCCC2)CCCCC1)c1ccco1`, the inhibition is inactive: 6.01%.

For `CN(C)c1ccc(C(=O)NCC2(N3CCCCC3)CCCCC2)cc1`, the inhibition was inactive: 21.6%.

In the case of `Cn1c(=O)[nH]cc(N(CCCl)CCCl)c1=O`, the inhibition was inactive: 19.2%.

Regarding `Cc1ccccc1NC1(C#N)CCN(Cc2ccccc2)CC1`, the inhibition was inactive: 0.4%.

For `CCN1CCC(Nc2cccc(F)c2)CC1`, the inhibition is inactive: 6.44%.

With `Cc1ccc(NC2(C#N)CCN(Cc3ccccc3)CC2)cc1`, the inhibition was inactive: -2.58%.

For the molecule `Cc1ccc(C(=O)NCC2(N3CCCCC3)CCCCC2)o1`, the inhibition is inactive: 8.22%.

`Fc1ccccc1NC1CCN(Cc2ccccc2)CC1`: the inhibition is inactive: 7.14%.

Consider `COc1cc(OC)cc(C(=O)NCC2(N3CCCCC3)CCCCC2)c1`, for which the inhibition was inactive: 14.5%.

For the molecule `CC(=O)N(c1ccccc1)C1CCNCC1`, the inhibition is inactive: 2.37%.

As for `CCOC(=O)N1CCC(Nc2cccc(C)c2)CC1`, the inhibition is inactive: -0.16%.

For the molecule `COc1cc(C(=O)NCC2(N(C)C)CCCCC2)ccc1OC(F)F`, the inhibition is inactive: 16.1%.

For the molecule `O=P1(N(CCCl)CCCl)SCCCS1`, the inhibition is inactive: -0.79%.

With `CCCCOc1ccc(C(=O)NCC2(N3CCOCC3)CCCCC2)cc1`, the inhibition was inactive: 34.7%.

For `O=C(NCC1(N2CCCCC2)CCCCC1)c1ccc(F)cc1`, the inhibition was inactive: 2.88%.

`COc1ccc(NC2CCN(CCc3ccccc3)CC2)c(OC)c1`: the inhibition was inactive: 4.14%.

Regarding `CCOC(=O)N1CCC(Nc2ccc(F)cc2)CC1`, the inhibition was inactive: -1.79%.

Consider `CCOc1ccc(C)cc1CN(CCCl)CCCl`, for which the inhibition was inactive: 4.57%.

As to `O=C1CCN(Cc2ccccc2)CC1`, the inhibition is inactive: 1.05%.

As for `CCOC(=O)N1CCC(Nc2ccc(OC)cc2)CC1`, the inhibition was inactive: -7.55%.

Consider `N#CC1(Nc2ccccc2)CCN(Cc2ccccc2)CC1`, for which the inhibition is inactive: 1.37%.

On to `O=C(NCC1(N2CCCCC2)CCCCC1)c1ccc(Cl)s1`, for which the inhibition was inactive: 15.1%.

Consider `O=C(OC1CN2CCC1CC2)C1c2ccccc2Oc2ccccc21` (stereo not given), for which the inhibition is inactive: 14.8%.

For the molecule `COc1ccc(Cl)cc1C(=O)NCC1(N2CCOCC2)CCCCC1`, the inhibition was inactive: 10.1%.

`O=C(NCC1(N2CCOCC2)CCCCC1)c1cc2ccccc2o1`: the inhibition is inactive: -2.19%.

For `O=C(NCC1(N2CCCCC2)CCCCC1)c1ccc(Cl)nc1`, the inhibition was inactive: 9.6%.

As for `Cc1cc(C)cc(N(C(=O)c2ccccc2)C2CCN(C(=O)OC(C)(C)C)CC2)c1`, the inhibition is inactive: 14.3%.

For the molecule `CSc1ccccc1C(=O)NCC1(N2CCCCC2)CCCCC1`, the inhibition was inactive: 25.8%.

For the molecule `Cc1cccc(NC2(C#N)CCN(Cc3ccccc3)CC2)c1`, the inhibition was inactive: 0.2%.

`O=C(NCC1(N2CCCCC2)CCCCC1)c1ccc(=O)[nH]c1`: the inhibition is inactive: 19%.

For the molecule `O=C(NCC1(N2CCCCC2)CCCCC1)c1cccs1`, the inhibition was inactive: 6.12%.

As for `COc1ccc(C(=O)NCC2(N3CCCCC3)CCCCC2)cc1`, the inhibition is inactive: 13%.

As to `COc1ccc(C(=O)NCC2(N3CCCCC3)CCCCC2)c(OC)c1OC`, the inhibition is inactive: 23.2%.

Take `CC(C)(C)OC(=O)N1CCC(N(C(=O)c2ccccc2)c2ccc(F)cc2)CC1`: the inhibition was inactive: 0.87%.

Regarding `CCCOc1ccc(C(=O)NCC2(N(C)C)CCCCC2)cc1OC`, the inhibition was inactive: 17%.

In the case of `CN1CCC(Nc2cccc(F)c2)CC1`, the inhibition was inactive: -11.9%.

For `O=C(NCC1(N2CCCCC2)CCCCC1)c1cncc(Br)c1`, the inhibition was inactive: 16.1%.

With `COc1cc(OC)c(C(=O)NCC2(N(C)C)CCCCC2)cc1OC`, the inhibition was inactive: 2.79%.

As for `O=C(NCC1(N2CCOCC2)CCCCC1)c1cc(F)c(F)cc1Cl`, the inhibition is inactive: -1.62%.

With `COc1ccc(CN(CCCl)CCCl)cc1Cl`, the inhibition was inactive: 12.7%.

In the case of `CN(C)c1cccc(C(=O)NCC2(N3CCCCC3)CCCCC2)c1`, the inhibition was inactive: 30.5%.

On to `CC(C)c1ccc(NC2CCN(C(=O)OC(C)(C)C)CC2)cc1`, for which the inhibition is inactive: -48%.

With `CN1CCN(CCOC(=O)C(O)(c2ccccc2)c2ccccc2)CC1`, the inhibition was inactive: 3.69%.

`COc1ccc(NC2CCN(C(=O)OC(C)(C)C)CC2)cc1`: the inhibition is inactive: -12.2%.

Consider `CC(C)c1ccc(C(=O)NCC2(N3CCOCC3)CCCCC2)cc1`, for which the inhibition is inactive: 19.4%.

For `COc1cc(C(=O)NCC2(N3CCCCC3)CCCCC2)ccc1OC(F)F`, the inhibition was inactive: 37.7%.

`O=C(NCC1(N2CCOCC2)CCCCC1)c1cc(=O)[nH]c2ccccc12`: the inhibition is inactive: 10.9%.

As for `O=C(NCC1(N2CCCCC2)CCCCC1)c1cccc(C(F)(F)F)c1`, the inhibition was inactive: 24.9%.

`CSc1ccc(C(=O)NCC2(N3CCOCC3)CCCCC2)cc1`: the inhibition is inactive: 18.7%.

With `O=C(NCC1(N2CCCCC2)CCCCC1)c1cccc([N+](=O)[O-])c1`, the inhibition was inactive: 21.3%.

Take `CCN1CCC(Nc2ccc(Cl)cc2)CC1`: the inhibition is inactive: -1.52%.

Turning to `N#CC1(Nc2ccccc2)CCN(CCc2ccccc2)CC1`, the inhibition is inactive: -17.2%.

In the case of `O=C(NCC1(N2CCCCC2)CCCCC1)c1ccc(OC(F)F)cc1`, the inhibition is inactive: 34%.
